# US20060189679A1, “C10 cyclopropyl ester substituted taxane compositions” (priority 2005, published 2006)
# Tested on: HT-29 human colon tumor xenografts
# Assay: HT-29 human tumor xenograft studies in nude mice
# [1] = HT29-e80, 80 mg/kg PO Q7D × 3, listed as compound 3102
# [2] = HT29-e105, 120 mg/kg PO Q7D × 3
# [3] = HT29-e105, 150 mg/kg PO Q7D × 3
# [4] = HT29-e105, 180 mg/kg PO Q7D × 3
compound,measurement,setting,value
CC(=O)O[C@@]12CO[C@@H]1C[C@H](O)[C@@]1(C)C(=O)[C@H](OC(=O)C3CC3)C3=C(C)[C@@H](OC(=O)[C@H](O)[C@@H](NC(=O)OCC(C)C)c4ccco4)C[C@@](O)([C@@H](OC(=O)c4ccccc4)C12)C3(C)C (stereo partly shown) [Compound 3102],# Death NTR,"HT29-e51, 30 mg/kg IV Q4D × 4",0
same,# Death TR,"HT29-e51, 30 mg/kg IV Q4D × 4",1
same,Max. % BW Loss; Day,"HT29-e51, 30 mg/kg IV Q4D × 4, Day 19",−16.2%;
same,Max. % BW Loss; Day,"HT29-e51, 30 mg/kg IV Q4D × 4, Day 19, listed as compound 3102",−16.2%
same,# Death TR,"HT29-e51, 30 mg/kg IV Q4D × 4, listed as compound 3102",one
same,# Death NTR,"HT29-e76, 30 mg/kg PO Q4D × 4",0
same,# Death TR,"HT29-e76, 30 mg/kg PO Q4D × 4",0
same,#CR,"HT29-e76, 30 mg/kg PO Q4D × 4",0
same,#PR,"HT29-e76, 30 mg/kg PO Q4D × 4",1
same,#SD/PD,"HT29-e76, 30 mg/kg PO Q4D × 4",0
same,MDS to 1.0 g ± SEM (n),"HT29-e76, 30 mg/kg PO Q4D × 4",27.9 ± 1.0 (5) days
same,Max. % BW Loss; Day,"HT29-e76, 30 mg/kg PO Q4D × 4, Day 17",−7.4%;
same,Max. % BW Loss; Day,"HT29-e76, 30 mg/kg PO Q4D × 4, Day 17, listed as compound 3102",−7.4%
same,MDS to 1.0 g ± SEM (n),"HT29-e76, 30 mg/kg PO Q4D × 4, listed as compound 3102",27.9 days
same,# Death NTR,"HT29-e76, 45 mg/kg PO Q4D × 4",0
same,# Death TR,"HT29-e76, 45 mg/kg PO Q4D × 4",0
same,#CR,"HT29-e76, 45 mg/kg PO Q4D × 4",1
same,#PR,"HT29-e76, 45 mg/kg PO Q4D × 4",3
same,#SD/PD,"HT29-e76, 45 mg/kg PO Q4D × 4",2
same,Max. % BW Loss; Day,"HT29-e76, 45 mg/kg PO Q4D × 4, Day 14",−12.8%;
same,# Death NTR,"HT29-e76, 60 mg/kg PO Q4D × 4",0
same,# Death TR,"HT29-e76, 60 mg/kg PO Q4D × 4",0
same,#CR,"HT29-e76, 60 mg/kg PO Q4D × 4",0
same,#PR,"HT29-e76, 60 mg/kg PO Q4D × 4",5
same,#SD/PD,"HT29-e76, 60 mg/kg PO Q4D × 4",0
same,Max. % BW Loss; Day,"HT29-e76, 60 mg/kg PO Q4D × 4, Day 17",−17.8%;
same,MDS to 1.0 g ± SEM (n),"HT29-e76, 60 mg/kg PO Q4D × 4, one mouse (n=1)",14.0 ± (1) days
same,MDS to 1.0 g ± SEM (n),"HT29-e76, 60 mg/kg PO Q4D × 4, one mouse (n=1), listed as compound 3102",14.0 days
same,# Death NTR,"HT29-e79, 50 mg/kg PO Q4D × 4",0
same,# Death TR,"HT29-e79, 50 mg/kg PO Q4D × 4",0
same,#CR,"HT29-e79, 50 mg/kg PO Q4D × 4",0
same,#PR,"HT29-e79, 50 mg/kg PO Q4D × 4",4
same,#SD/PD,"HT29-e79, 50 mg/kg PO Q4D × 4",2
same,Max. % BW Loss; Day,"HT29-e79, 50 mg/kg PO Q4D × 4, Day 10",−0.9%;
same,#PR,"HT29-e79, 50 mg/kg PO Q4D × 4, listed as compound 3102",4/6
same,# Death NTR,"HT29-e79, 60 mg/kg PO Q4D × 4",0
same,# Death TR,"HT29-e79, 60 mg/kg PO Q4D × 4",0
same,#CR,"HT29-e79, 60 mg/kg PO Q4D × 4",0
same,#PR,"HT29-e79, 60 mg/kg PO Q4D × 4",6
same,#SD/PD,"HT29-e79, 60 mg/kg PO Q4D × 4",0
same,Max. % BW Loss; Day,"HT29-e79, 60 mg/kg PO Q4D × 4, Day 17",−6.5%;
same,#PR,"HT29-e79, 60 mg/kg PO Q4D × 4, listed as compound 3102",6/6
same,# Death NTR,"HT29-e79, 70 mg/kg PO Q4D × 4",0
same,# Death TR,"HT29-e79, 70 mg/kg PO Q4D × 4",0
same,#CR,"HT29-e79, 70 mg/kg PO Q4D × 4",0
same,#PR,"HT29-e79, 70 mg/kg PO Q4D × 4",6
same,#SD/PD,"HT29-e79, 70 mg/kg PO Q4D × 4",0
same,Max. % BW Loss; Day,"HT29-e79, 70 mg/kg PO Q4D × 4, Day 10",−6.1%;
same,#PR,"HT29-e79, 70 mg/kg PO Q4D × 4, listed as compound 3102",6/6
same,# Death NTR,"HT29-e80, 60 mg/kg PO Q7D × 3",0
same,# Death TR,"HT29-e80, 60 mg/kg PO Q7D × 3",0
same,#CR,"HT29-e80, 60 mg/kg PO Q7D × 3",0
same,#PR,"HT29-e80, 60 mg/kg PO Q7D × 3",0
same,#SD/PD,"HT29-e80, 60 mg/kg PO Q7D × 3",3
same,MDS to 1.0 g ± SEM (n),"HT29-e80, 60 mg/kg PO Q7D × 3",45.0 ± 6.8 (3) days
same,Max. % BW Loss; Day,"HT29-e80, 60 mg/kg PO Q7D × 3, Day 14",−3.8%;
same,# Death NTR,"HT29-e80, 80 mg/kg PO Q7D × 3",0
same,# Death TR,"HT29-e80, 80 mg/kg PO Q7D × 3",0
same,#CR,"HT29-e80, 80 mg/kg PO Q7D × 3",2
same,#PR,"HT29-e80, 80 mg/kg PO Q7D × 3",3
same,#SD/PD,"HT29-e80, 80 mg/kg PO Q7D × 3",1
same,Max. % BW Loss; Day,"HT29-e80, 80 mg/kg PO Q7D × 3, Day 14",−0.9%;
same,#CR,[1],2/6
same,#PR,[1],3/6
same,# Death NTR,"HT29-e80, 100 mg/kg PO Q7D × 3",0
same,# Death TR,"HT29-e80, 100 mg/kg PO Q7D × 3",0
same,#CR,"HT29-e80, 100 mg/kg PO Q7D × 3",0
same,#PR,"HT29-e80, 100 mg/kg PO Q7D × 3",5
same,#SD/PD,"HT29-e80, 100 mg/kg PO Q7D × 3",1
same,Max. % BW Loss; Day,"HT29-e80, 100 mg/kg PO Q7D × 3, Day 17",−9.2%;
same,Max. % BW Loss; Day,"HT29-e80, 100 mg/kg PO Q7D × 3, Day 17, listed as compound 3102",≤ 10%
same,#PR,"HT29-e80, 100 mg/kg PO Q7D × 3, listed as compound 3102",5/6
same,# Death NTR,"HT29-e105, 15 mg/kg PO Q7D × 3",0
same,# Death TR,"HT29-e105, 15 mg/kg PO Q7D × 3",0
same,MDS to 1.0 g ± SEM (n),"HT29-e105, 15 mg/kg PO Q7D × 3",27.7 ± 4.6 days
same,# Death NTR,"HT29-e105, 30 mg/kg PO Q4D × 4",0
same,# Death TR,"HT29-e105, 30 mg/kg PO Q4D × 4",0
same,MDS to 1.0 g ± SEM (n),"HT29-e105, 30 mg/kg PO Q4D × 4",35.6 ± 5.8 days
same,Max. % BW Loss; Day,"HT29-e105, 30 mg/kg PO Q4D × 4, Day 17",−2.7%;
same,# Death NTR,"HT29-e105, 30 mg/kg PO Q7D × 3",0
same,# Death TR,"HT29-e105, 30 mg/kg PO Q7D × 3",0
same,MDS to 1.0 g ± SEM (n),"HT29-e105, 30 mg/kg PO Q7D × 3",31.4 ± 5.8 days
same,# Death NTR,"HT29-e105, 40 mg/kg PO Q4D × 4",0
same,# Death TR,"HT29-e105, 40 mg/kg PO Q4D × 4",0
same,MDS to 1.0 g ± SEM (n),"HT29-e105, 40 mg/kg PO Q4D × 4",44.9 days
same,Max. % BW Loss; Day,"HT29-e105, 40 mg/kg PO Q4D × 4, Day 17",−9.1%;
same,# Death NTR,"HT29-e105, 50 mg/kg PO Q4D × 4",0
same,# Death TR,"HT29-e105, 50 mg/kg PO Q4D × 4",0
same,MDS to 1.0 g ± SEM (n),"HT29-e105, 50 mg/kg PO Q4D × 4",49.2 days
same,Max. % BW Loss; Day,"HT29-e105, 50 mg/kg PO Q4D × 4, Day 17",−9.7%;
same,# Death NTR,"HT29-e105, 60 mg/kg PO Q4D × 4",0
same,# Death TR,"HT29-e105, 60 mg/kg PO Q4D × 4",0
same,Max. % BW Loss; Day,"HT29-e105, 60 mg/kg PO Q4D × 4, Day 17",−13.5%;
same,# Death NTR,"HT29-e105, 60 mg/kg PO Q7D × 3",0
same,# Death TR,"HT29-e105, 60 mg/kg PO Q7D × 3",1
same,MDS to 1.0 g ± SEM (n),"HT29-e105, 60 mg/kg PO Q7D × 3",48.8 days
same,Max. % BW Loss; Day,"HT29-e105, 60 mg/kg PO Q7D × 3, Day 6",−5.9%;
same,# Death NTR,"HT29-e105, 70 mg/kg PO Q4D × 4",0
same,# Death TR,"HT29-e105, 70 mg/kg PO Q4D × 4",0
same,Max. % BW Loss; Day,"HT29-e105, 70 mg/kg PO Q4D × 4, Day 17",−13.2%;
same,# Death NTR,"HT29-e105, 80 mg/kg PO Q4D × 4",0
same,# Death TR,"HT29-e105, 80 mg/kg PO Q4D × 4",0
same,Max. % BW Loss; Day,"HT29-e105, 80 mg/kg PO Q4D × 4, Day 17",−15.4%;
same,# Death NTR,"HT29-e105, 90 mg/kg PO Q7D × 3",0
same,# Death TR,"HT29-e105, 90 mg/kg PO Q7D × 3",0
same,Max. % BW Loss; Day,"HT29-e105, 90 mg/kg PO Q7D × 3, Day 6",−5.6%;
same,# Death NTR,[2],0
same,# Death TR,[2],0
same,Max. % BW Loss; Day,"HT29-e105, 120 mg/kg PO Q7D × 3, Day 20",−13.3%;
same,# Death NTR,[3],0
same,# Death TR,[3],0
same,Max. % BW Loss; Day,"HT29-e105, 150 mg/kg PO Q7D × 3, Day 24",−17.3%;
same,# Death NTR,[4],0
same,# Death TR,[4],2
same,Max. % BW Loss; Day,"HT29-e105, 180 mg/kg PO Q7D × 3, Day 24",−27.4%;
